# Test results reported in patent publication US20230256111A1, “C[…] ADC OR AN AOC COMPRISING A VHH, AND A SAPONIN OR A LIGAND-SAPONIN CONJUGATE” (SAPREME TECHNOLOGIES B.V., priority 2020, published 2023).
# Tested on: human A431 tumor cells (xenograft)
# Test: A431 xenograft tumor model in nude mice, tumor volume
# Assay type: in vivo, mouse
# Details: Example 10; for outcome (death/euthanasia or survival): A431 xenograft mice
# Description: Female Balb/c nude mice were injected subcutaneously with a suspension of human A431 tumor cells. Under the skin of the mice, a human epidermal carcinoma developed in the xenograft animal tumor model. After injection of the tumor cells, the xenograft tumor was allowed to develop to a size of approximately 170-180 mm^3. The A431 tumor cells have the following characteristics: high EGFR expressors, medium 0071 expressors, low HER2 expressors.
# In Table 6A, the results of the treatment of control mice and tumor-bearing mice are presented. Tumor-bearing mice were treated with the indicated antibodies directed to either human Her2/neu, human EGFR, or human CD71, which are cell-surface receptors on the xenograft tumor. Cetuximab was covalently conjugated with saponin SO1861. […] The dose of the ADCs was sub-optimal in the tumor model. That is to say, from previous experiments, it was established at which sub-optimal dose of the ADCs no tumor-regression or arrest of tumor growth would be observable.
# The 2 target 2-components system (2T2C) is the combination treatment of mAb1-SO1861 and mAb2-protein toxin, (FIG. 1B-D).
Substance,outcome (death/euthanasia or survival),"tumor size (volume) (female Balb/c nude mice, start size approximately 170-180 mm^3, sub-optimal ADC dose) [mm^3]"
Cetuximab: monoclonal antibody recognizing and binding human EGFR,(death/euthanasia),
Cetuximab-SO1861: cetuximab conjugated to saponin SO1861 via cleavable hydrazone (EMCH) linker,death/euthanasia,2000
